These results are taken from patent publication US20100311035A1, “Preservation solution for organs and biological tissues” (priority 2005, published 2010).

Test [1] has as its system Sprague-Dawley rat kidneys. Nature of the test: Cold storage of rat kidneys for 24 hours, transplantation, post-transplant serum creatinine. The class given is in vivo. The following applies: component(s) added to Viaspan; kidneys preserved under static conditions for 24 hours at 4° C, then transplanted; serum creatinine measured hourly for 6 hours; control VIASP solution; FIG. 1. The protocol: Sprague-Dawley rat kidneys were recovered in the normal fashion and were exsanguinated and cooled to 4° C. Experimental components were added to the solution to test for improvements in post-transplant function (indicated by serum creatinine levels). Seven different solutions were prepared for comparison according to Table 1. […] The kidneys were preserved under static conditions for 24 hours with the respective solutions, and transplanted into recipient animals. Post-transplant serum creatinine (S. CREAT) was measured hourly for 6 hours.

Another test relates to Rat kidneys. In words: Machine perfusion of rat kidneys for 24 hours, transplantation, post-transplant serum creatinine. The class given is in vivo. The following applies: component(s) added to Belzer solution; kidneys preserved under machine perfusion for 24 hours, then transplanted; serum creatinine measured hourly for 6 hours; control BELZ solution; FIG. 2. The protocol:
Rat kidneys were recovered as above. Seven different solutions were prepared for comparison according to Table 2. […] The kidneys were preserved under machine perfusion for 24 hours with the respective solutions, and transplanted into recipient animals. Post-transplant serum creatinine (S. CREAT) was measured hourly for 6 hours.

With α-ketoglutarate, the “improvement in post-transplant function (indicated by serum creatinine levels) compared to the control” value in test [1] is listed as “Minimal, but statistically insignificant improvements”. Also, in the test on Rat kidneys, the “improvement in post-transplant function (serum creatinine) compared to the control” value is “Minimal, but statistically insignificant improvements”.
